The nature of assay [1]: total CFTR protein upregulators, primary screen, cell-based, HeLa F508del-CFTR, immunofluorescence, viability (AID 1224863).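 On fold increase: total CFTR protein by anti-CFTR immunofluorescence in fixed cells.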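 On max fold increase: total CFTR protein by anti-CFTR immunofluorescence in fixed cells.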 To be noted: 24 h, stronger effect = higher value; min viability: measured here: HeLa viability, alamarBlue, dose 20, library dosed in µg/mL unless noted; viability: measured here: primary viability 10 ug/mL, library dosed in µg/mL unless noted.
Assay [2] concerns the target Cystic fibrosis transmembrane conductance regulator (Homo sapiens) (UniProt P13569). The description is as above. Particulars: 24 h; fold increase: measured here: primary screen 10 ug/mL, library dosed in µg/mL, stronger effect = higher value unless noted; max fold increase: dose 10, library dosed in µg/mL, stronger effect = higher value unless noted; outcome: library dosed in µg/mL unless noted.

Sequences of proteins named here, by UniProt entry; tags and fusion partners are left off. A line that says so, or that is headed by a name, gives the form on record, which may keep a tag or linker.
UniProt P13569, with tags, fused parts or gaps F508del: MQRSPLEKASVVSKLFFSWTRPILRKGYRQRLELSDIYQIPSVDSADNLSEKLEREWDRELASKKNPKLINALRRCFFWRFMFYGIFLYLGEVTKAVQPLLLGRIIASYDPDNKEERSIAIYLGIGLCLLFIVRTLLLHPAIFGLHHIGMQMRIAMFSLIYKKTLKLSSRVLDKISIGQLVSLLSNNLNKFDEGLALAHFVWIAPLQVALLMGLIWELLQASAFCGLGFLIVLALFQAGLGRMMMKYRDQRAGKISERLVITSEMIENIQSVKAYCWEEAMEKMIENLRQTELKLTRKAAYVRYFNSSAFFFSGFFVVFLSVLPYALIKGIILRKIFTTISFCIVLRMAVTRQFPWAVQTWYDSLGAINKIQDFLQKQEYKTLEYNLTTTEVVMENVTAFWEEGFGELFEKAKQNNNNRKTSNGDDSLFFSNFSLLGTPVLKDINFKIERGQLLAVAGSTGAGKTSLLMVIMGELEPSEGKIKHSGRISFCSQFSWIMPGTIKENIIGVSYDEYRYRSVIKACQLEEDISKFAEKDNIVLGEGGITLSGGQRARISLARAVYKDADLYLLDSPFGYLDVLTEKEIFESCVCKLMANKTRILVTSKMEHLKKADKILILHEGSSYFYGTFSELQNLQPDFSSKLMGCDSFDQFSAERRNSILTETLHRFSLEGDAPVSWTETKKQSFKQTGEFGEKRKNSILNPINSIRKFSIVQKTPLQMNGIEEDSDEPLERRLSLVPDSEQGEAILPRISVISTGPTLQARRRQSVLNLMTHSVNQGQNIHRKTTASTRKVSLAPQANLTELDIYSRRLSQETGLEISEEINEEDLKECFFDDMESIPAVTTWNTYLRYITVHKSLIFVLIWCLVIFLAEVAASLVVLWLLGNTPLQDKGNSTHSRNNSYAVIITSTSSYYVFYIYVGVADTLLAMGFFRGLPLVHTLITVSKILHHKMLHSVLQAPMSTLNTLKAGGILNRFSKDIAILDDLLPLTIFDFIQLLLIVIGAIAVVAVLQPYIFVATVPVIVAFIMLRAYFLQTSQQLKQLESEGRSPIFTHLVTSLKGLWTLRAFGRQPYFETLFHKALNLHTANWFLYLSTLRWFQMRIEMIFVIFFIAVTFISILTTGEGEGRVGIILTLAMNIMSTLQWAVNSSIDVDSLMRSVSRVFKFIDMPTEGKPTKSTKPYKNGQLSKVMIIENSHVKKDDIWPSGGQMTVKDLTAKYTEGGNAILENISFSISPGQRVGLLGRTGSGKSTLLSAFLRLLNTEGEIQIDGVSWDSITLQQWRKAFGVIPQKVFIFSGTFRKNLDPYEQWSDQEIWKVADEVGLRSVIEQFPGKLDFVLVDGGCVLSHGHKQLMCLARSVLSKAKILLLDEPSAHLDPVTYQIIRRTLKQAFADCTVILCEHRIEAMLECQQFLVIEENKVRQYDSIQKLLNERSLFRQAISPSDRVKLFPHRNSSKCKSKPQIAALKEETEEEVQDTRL

The source of these data is PubChem BioAssay AID1224863 (Southern Research Institute, 2016).

Among all 10,000 compounds or so, about 15 (0.1%) were called active.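 How the source made its calls: active means highest signal at least 8 times the median of untreated cell-only control wells at some dose; inactive means the rest.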 The list is a sample of the results.

Turning to `CCc1nc2ccccc2n1CCOc1ccc(Br)cc1`, the viability in assay [1] stood at 81%. Further, in assay [2], the fold increase is 0.89 and the outcome was inactive.

Turning to `COc1cc(F)c(S(=O)(=O)Nc2ccc3c(c2)OC2(CCCCC2)O3)cc1OC`, in assay [1], the viability amounted to 85%. Further, in assay [2], the fold increase was 0.93 and the result was inactive.

As for `CCN(CC)S(=O)(=O)c1cc2c(cc1Br)NC(=O)CO2`, the viability in assay [1] turned out to be 92%. Further, in assay [2], the fold increase came out at 1.02 and the compound was called inactive.

For the compound `CSCCSc1nnc(-c2ccccc2)n1-c1ccc(Cl)cc1`, the viability in assay [1] came to 81%. In addition, in assay [2], the fold increase was determined as 0.92 and the compound was classed as inactive.

Regarding `C=CCn1c(C)cc(C(=O)COc2ccc3oc4c(c3c2)CCCC4)c1C`, the viability in assay [1] is 84%. Moreover, in assay [2], the fold increase turned out to be 0.97 and the compound was classed as inactive.

In the case of `N#CCSc1nc2sc3c(c2c(=O)n1C1CCCC1)CCCC3`, the viability in assay [1] came out at 80%. Besides, in assay [2], the fold increase turned out to be 0.98 and the call was inactive.

As to `CCOC(=O)C1SC(SCc2cc(C(=O)OC)c(C)o2)=NC1=O` (stereo not given), in assay [1], the viability is 99%. For the same compound, in assay [2], the fold increase was determined as 1.01 and the outcome was inactive.

Turning to `CN1C(=O)C(=O)N(CCOc2ccc(Cl)cc2Br)C1=O`, the viability in assay [1] was determined as 90%. Besides, in assay [2], the fold increase was 0.98 and the compound was classed as inactive.

As for `Clc1ccc(-c2csc(NC3CC3)n2)cc1Cl`, the viability in assay [1] turned out to be 99%. Besides, in assay [2], the fold increase worked out at 0.91 and the call was inactive.

In the case of `CC(c1nc(C(C)(C)C)no1)N1CCN(c2ccccc2F)CC1` (stereo not given), in assay [1], the viability was 87%. Besides, in assay [2], the fold increase is 0.89 and the outcome was inactive.

With `CC(=O)c1c(C)[nH]c(C(=O)C(C)N2CCN(C(=O)C3CC3)CC2)c1C` (stereo not given), the viability in assay [1] worked out at 78%. In assay [2], the fold increase is 0.82 and the call was inactive.

In the case of `CS(=O)(=O)N1CCN(c2ccc(Br)cc2[N+](=O)[O-])CC1`, the viability in assay [1] stood at 103%. Besides, in assay [2], the fold increase turned out to be 0.92 and the call was inactive.

For the compound `Cc1cc(C(=O)OC(C)C(N)=O)c(C)n1CC(F)(F)F` (stereo not given), the viability in assay [1] is 88%. For the same compound, in assay [2], the fold increase is 1.05 and the compound was classed as inactive.

As for `Cc1cc(CN2CCN(CCS(=O)c3ccccc3)CC2)on1` (stereo not given), the viability in assay [1] came out at 90%. In assay [2], the fold increase was 1.09 and the call was inactive.

Take `C=CCn1c(-c2cccnc2)nn(CN2CCc3ccccc3C2)c1=S`: the viability in assay [1] was found to be 111%. Also, in assay [2], the fold increase is 1.12 and the result was inactive.

Consider `CN1N=C(C(=O)Nc2ccc3c(c2)OC2(CCCC2)O3)CCC1=O`, for which the viability in assay [1] amounted to 92%. In assay [2], the fold increase came out at 0.97 and the result was inactive.

With `Cc1cc(C)n2nc(SCC(=O)c3ccc(Br)cc3)nc2n1`, the viability in assay [1] amounted to 76%. Moreover, in assay [2], the fold increase is 0.93 and the result was inactive.

Turning to `CC1CCc2c(sc3nc(-c4cccnc4)nc(N4CCNC(=O)CC4)c23)C1` (stereo not given), the viability in assay [1] came to 84%. Besides, in assay [2], the fold increase stood at 0.94 and the compound was classed as inactive.

For the compound `COc1ccc(C23CC4CC(CC(C(=O)OC5CCOC5=O)(C4)C2)C3)cc1` (stereo not given), in assay [1], the viability was 108%. Besides, in assay [2], the fold increase came to 1.12 and the compound was classed as inactive.

Regarding `Cc1ccc(-c2nc(-c3ccc(C(C)(C)C)cc3)c(C)s2)cc1`, the viability in assay [1] amounted to 96%. In assay [2], the fold increase was found to be 1.12 and the result was inactive.

In the case of `N#CC1(c2nc3ccccc3s2)Cc2cc([N+](=O)[O-])ccc2N2CCCCC21` (stereo not given), the viability in assay [1] came out at 88%. For the same compound, in assay [2], the fold increase was determined as 1.17 and the compound was called inactive.

`CN1CCN(S(=O)(=O)c2ccc(Sc3ccc(Br)cc3)nc2)CC1`: the viability in assay [1] is 79%. Moreover, in assay [2], the fold increase came to 0.92 and the result was inactive.

As to `CCCNC(=O)C(C)NC(=O)Cc1c(C)nc2nc(N)nn2c1C` (stereo not given), the viability in assay [1] turned out to be 99%. Besides, in assay [2], the fold increase was 1.14 and the compound was called inactive.

In the case of `Cc1nn2c(nc(NC3CCCN(C)C3)c3ccccc32)c1Cl` (stereo not given), in assay [1], the min viability is 70.3% [measured here: HeLa viability, alamarBlue, dose 10, library dosed in µg/mL] and the viability stood at 72%. Further, in assay [2], the fold increase was 2.03 and the max fold increase is 1.32 [dose 0.039, library dosed in µg/mL, stronger effect = higher value] (inactive).

`O=c1oc2ccccc2n1CN1CCCC(O)C1` (stereo not given): the viability in assay [1] came to 85%. Besides, in assay [2], the fold increase was 0.95 and the result was inactive.

With `O=[N+]([O-])c1cc2c(c(CSc3nnnn3-c3ccc(Cl)cc3)c1)OCOC2`, the viability in assay [1] amounted to 91%. For the same compound, in assay [2], the fold increase came to 1.01 and the compound was classed as inactive.

Consider `CN(Cc1nc2ccsc2c(=O)[nH]1)C(=O)CCc1nnc(-c2ccsc2)o1`, for which the viability in assay [1] came out at 87%. Besides, in assay [2], the fold increase came out at 1.17 and the outcome was inactive.

As for `N#Cc1c(/C=C/c2ccc3c(c2)OCCO3)cc(-c2cccc(Cl)c2)n2c1nc1ccccc12`, the viability in assay [1] turned out to be 99%. Also, in assay [2], the fold increase worked out at 1.16 and the outcome was inactive.

With `CC(C)CN1CC(C(=O)Nc2ccc3c(c2)OC2(CCCC2)O3)CC1=O` (stereo not given), in assay [1], the viability came to 83%. For the same compound, in assay [2], the fold increase was determined as 1.08 and the compound was called inactive.

Turning to `O=C(OCc1cc(Cl)c2c(c1)OCO2)c1ccco1`, the viability in assay [1] amounted to 90%. In assay [2], the fold increase amounted to 0.99 and the result was inactive.

Consider `O=C(Cn1ncc(Cl)c(Cl)c1=O)N1CCNC1=O`, for which, in assay [1], the min viability was 70% and the viability worked out at 78%. In assay [2], the fold increase was 1.56 and the max fold increase was 3.11 (inactive).

Turning to `CCOCCCNc1sc(S(C)(=O)=O)nc1S(=O)(=O)c1ccc(C)cc1`, the viability in assay [1] is 93%. Besides, in assay [2], the fold increase is 1.05 and the result was inactive.

As for `CC(C#N)Sc1nnnn1-c1ccc(Cl)cc1` (stereo not given), the viability in assay [1] is 98%. In addition, in assay [2], the fold increase was 0.96 and the outcome was inactive.

For the compound `C=CCOc1ccccc1/C=C(/C#N)c1nc(N)nc(N(C)C)n1`, the viability in assay [1] was 85%. In addition, in assay [2], the fold increase turned out to be 1.09 and the compound was classed as inactive.

For `N#Cc1ccc(/C=C2\CSc3ccccc3C2=O)cc1`, the viability in assay [1] is 56%. In addition, in assay [2], the fold increase turned out to be 0.79 and the compound was classed as inactive.

On to `CC1(c2ccc3c(c2)OCO3)NC(=O)N(Cc2ccc3c(c2)OCO3)C1=O` (stereo not given), for which the viability in assay [1] amounted to 100%. In addition, in assay [2], the fold increase was determined as 0.99 and the outcome was inactive.

Consider `CS(=O)(=O)NC1CCN(CC(=O)NC2CC2)CC1`, for which the viability in assay [1] was 105%. Moreover, in assay [2], the fold increase was determined as 1.17 and the result was inactive.

In the case of `S=c1n(CN(C2CCCC2)C2CC2)nc(N2CCOCC2)n1-c1ccccc1`, the viability in assay [1] was found to be 102%. In assay [2], the fold increase was 1.03 and the outcome was inactive.

`CC(C)N1C(=O)c2ccc(C(=O)Nc3ccc(I)cc3)cc2S1(=O)=O`: the viability in assay [1] amounted to 92%. In assay [2], the fold increase amounted to 0.96 and the compound was called inactive.

On to `Cc1cnc(NC(=O)COCC2CC2)s1`, for which the viability in assay [1] amounted to 100%. Also, in assay [2], the fold increase was 1.01 and the compound was classed as inactive.

Consider `CCN1C(=O)c2ccccc2N2C(=O)CCC12C(=O)NC(C)c1ccc(F)cc1` (stereo not given), for which the viability in assay [1] worked out at 97%. In addition, in assay [2], the fold increase worked out at 0.96 and the compound was classed as inactive.

`CCC(C)(C)NCC(=O)N1c2ccccc2NC(=O)C1(C)C`: in assay [1], the viability is 93%. In addition, in assay [2], the fold increase is 1.11 and the compound was called inactive.

Take `NC(=O)C1CCCN1S(=O)(=O)c1ccc(Cl)s1` (stereo not given): in assay [1], the viability stood at 97%. Further, in assay [2], the fold increase is 1.06 and the compound was called inactive.

Turning to `Cn1ncc2c(NCC(=O)NC(C)(C)C)ncnc21`, in assay [1], the viability was determined as 91%. Further, in assay [2], the fold increase came out at 1.05 and the result was inactive.

As to `CS(=O)(=O)c1ccc(Oc2ccc3c(c2)OCCO3)c([N+](=O)[O-])c1`, the viability in assay [1] was 92%. For the same compound, in assay [2], the fold increase stood at 0.98 and the compound was called inactive.

`CCn1c(SCCS(=O)(=O)c2ccc(Br)cc2)nc2ccccc21`: in assay [1], the viability was 74%. Also, in assay [2], the fold increase was found to be 0.65 and the outcome was inactive.

With `CN1CCN(C(=O)C2CCN(C(=O)OCC(F)(F)F)CC2)c2nc3ccccc3nc21`, the viability in assay [1] came out at 85%. Further, in assay [2], the fold increase amounted to 0.99 and the compound was classed as inactive.

For `CN(C)S(=O)(=O)N1CCN(Cc2ccccc2CN2CCN(S(=O)(=O)N(C)C)CC2)CC1`, the viability in assay [1] is 94%. In assay [2], the fold increase turned out to be 0.9 and the compound was classed as inactive.

As to `CS(=O)(=O)NC1CCCN(c2nc(-c3ccccc3)nc3ccccc23)C1` (stereo not given), the viability in assay [1] was determined as 91%. Further, in assay [2], the fold increase is 0.95 and the compound was classed as inactive.

Consider `COc1cc(OC)cc(-c2nnc(SCCc3ccccc3)o2)c1`, for which, in assay [1], the viability turned out to be 105%. Besides, in assay [2], the fold increase was determined as 0.99 and the result was inactive.

As for `FC(F)(F)c1cnc(Nc2ccc3c(c2)OCCO3)c(Cl)c1`, the viability in assay [1] came to 81%. Besides, in assay [2], the fold increase is 0.98 and the result was inactive.
